Sequences of proteins named here, by UniProt entry; tags and fusion partners are left off. A change or cut given only in a name is not applied to a line headed by its entry.
UniProt O26232: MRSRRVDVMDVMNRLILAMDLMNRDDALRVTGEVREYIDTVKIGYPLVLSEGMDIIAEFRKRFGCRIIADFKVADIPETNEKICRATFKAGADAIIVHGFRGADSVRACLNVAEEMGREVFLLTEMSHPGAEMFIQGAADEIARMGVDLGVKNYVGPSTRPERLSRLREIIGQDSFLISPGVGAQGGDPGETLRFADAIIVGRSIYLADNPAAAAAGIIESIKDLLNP

According to publication PMC3083246 (Journal of medicinal chemistry, 2011):

Molecular target: Mt ODCase (Methanothermobacter thermautotrophicus, UniProt O26232)
Experiment: Time-dependent inactivation of Mt ODCase
Type: biochemical, Methanobacterium thermoautotrophicum
Settings: read-out: kinact, Mt ODCase

| SMILES | kinact |
| --- | --- |
| [N-]=[N+]=Nc1cn([C@@H]2O[C@H](CP(=O)(O)O)[C@@H](O)[C@H]2O)c(=O)[nH]c1=O [Compound 14, 6-azido-UMP, reference compound] | 0.17 s⁻¹ |
| [N-]=[N+]=Nc1cc(=O)[nH]c(=O)n1[C@@H]1O[C@H](CP(=O)(O)O)[C@@H](O)[C@H]1O [Compound 34, 6-Azido-2′-deoxy-2′-fluoro-β-D-uridine-5′-O-monophosphate] | 0.00111 s⁻¹ |
